Values of other authors in US9744174B2 (DemeRx, Inc., priority 2013, dated 2017).

Details: according to US National highway traffic safety administration; cited from earlier work

Q: For `CCC(=O)C(CC(C)N(C)C)(c1ccccc1)c1ccccc1` (stereo not shown) [Methadone, reference compound], which Therapeutic level is on record?
A: The Therapeutic level was 0.03 to 0.56 mg/L.
